Measured values taken from BindingDB's records for doi:10.1016/j.ejmech.2017.03.079 (Taipei Medical University (Tmu), 2017).

Target: T1, Histone deacetylase 8 (Homo sapiens, UniProt Q9BY41)
T1 sequence (Q9BY41 whole entry): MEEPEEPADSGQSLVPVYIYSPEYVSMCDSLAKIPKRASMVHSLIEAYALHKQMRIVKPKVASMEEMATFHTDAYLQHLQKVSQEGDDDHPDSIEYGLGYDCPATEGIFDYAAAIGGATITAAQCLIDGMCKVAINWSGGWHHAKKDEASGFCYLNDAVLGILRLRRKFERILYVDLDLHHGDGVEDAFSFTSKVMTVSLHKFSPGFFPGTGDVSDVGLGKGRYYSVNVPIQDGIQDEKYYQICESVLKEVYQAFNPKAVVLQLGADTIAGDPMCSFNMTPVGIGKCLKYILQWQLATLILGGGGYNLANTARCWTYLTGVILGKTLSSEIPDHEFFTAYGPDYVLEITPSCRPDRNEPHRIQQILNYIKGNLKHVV
Test: Inhibition of recombinant human full length HDAC8 using Fluor-de-Lys as substrate after 60 mins by spectrofluorimetric analysis

IC50: > 1 µM
SMILES: O=C(CCCCCCC(=O)Nc1ccccc1)NO [Zolinza]
